The source of these data is ChEMBL document CHEMBL1136656, “Synthesis and Biological activity of kappa opioid receptor agonists. Part 2: preparation of 3-aryl-2-pyridone analogues generated by solution- and solid-phase parallel synthesis methods” (Bioorg Med Chem Lett, 2003).

Amino acid sequences for entries named in this document (tags omitted). A change or cut given only in a name is not applied to a line headed by its entry.
UniProt P41145: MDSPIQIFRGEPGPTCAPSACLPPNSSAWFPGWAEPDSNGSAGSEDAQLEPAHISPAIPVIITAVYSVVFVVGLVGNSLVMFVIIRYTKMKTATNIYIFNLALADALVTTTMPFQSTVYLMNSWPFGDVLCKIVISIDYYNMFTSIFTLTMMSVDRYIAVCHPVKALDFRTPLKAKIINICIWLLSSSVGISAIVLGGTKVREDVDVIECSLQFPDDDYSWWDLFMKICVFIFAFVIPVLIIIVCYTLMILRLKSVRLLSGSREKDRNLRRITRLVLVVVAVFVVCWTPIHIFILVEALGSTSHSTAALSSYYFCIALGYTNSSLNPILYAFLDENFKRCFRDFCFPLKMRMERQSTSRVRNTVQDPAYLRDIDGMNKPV

The assay has as its target Kappa-type opioid receptor (Homo sapiens, UniProt P41145). Briefly: Effective dose for agonistic activity towards human kappa opioid receptor from membranes of HEK293 cells was determined by radiolabeled [35S]GTP-gamma-S, assay. It counts as functional, cell membranes.

Structures are written as SMILES.

For the compound `CN(C(=O)Cc1ccccc1)[C@H]1CC[C@@]2(CCCO2)C[C@@H]1N1CCCC1`, the ED50 turned out to be 24 nM.
